Test results as given in PMC4102417 (PLoS Neglected Tropical Diseases, 2014).

Legend:
in vitro = type: cell-based, murine; details: mouse, 3T3 fibroblasts, separate assays separated by semicolons, read-out: Mammalian cell CC50
[1] = system: T. cruzi (Tulahuen strain)

## COc1cc(NC(C)CCCN)c2ncccc2c1.O=P(O)(O)O.O=P(O)(O)O (stereo not drawn) [Primaquine, N-(5-aminopentan-2-yl)-6-methoxyquinolin-8-amine; bis(phosphoric acid)]
In vitro
  CC50 at 72 h: 7.9 µM
[1]
  Selectivity index: 26.3
  T. cruzi EC50 / activity in words: high nanomolar
